# In patent US11246873B2, “Directed differentiation of oligodendrocyte precursor cells to a myelinating cell fate” (The Scripps Research Institute, priority 2011, dated 2022):
# Tested on: histamine receptor
# Format: cell-based, rat
# From the text: OPCs express mAChRs, predominantly subtypes M1, M3, and M5 (F. Ragheb et al., J Neurochem, 77, 1396 (2001)). […] Activation of M1 and M3 mAChRs is coupled to downstream signal transduction events through phospholipase C, which results in increased intracellular calcium concentrations (F. Ragheb et al., J Neurochem, 77, 1396 (2001)) (FIG. 23C). M2 and M4 mAChR activation inhibits adenylatecyclase, leading to decreased intracellular cAMP levels (C. C. Felder, FASEB J, 9, 619 (1995); M. Lopez-Ilasaca et al., Science, 275, 394 (1997)). […] Acetylcholine is a known regulator of OPC proliferation and, as such, muscarinic receptor subtypes represent a reasonable class of therapeutic targets for the modulation of OPC proliferation and differentiation (F. De Angelis et al., Dev Neurobiol, (2011)).
smiles,measurement,value
CN1[C@@H]2CC[C@H]1C[C@@H](OC(c1ccccc1)c1ccccc1)C2 [benztropine],effect of histamine or HTMT on benztropine activity / histamine receptor signaling,no observable effect
